The target of the assay is T1, calmodulin insensitive cyclic GMP phosphodiesterase (Sus scrofa, UniProt A0A287B475).
T1 construct: Following dissection arteries were flash frozen in liquid nitrogen; from tissue; host or cells: pig pulmonary arteries or aortas, partially purified on DEAE-Sepharose, calmodulin-agarose and cibacron blue-agarose
The experiment in a line: Inhibition of phosphodiesterase (PDE), cyclic GMP hydrolysis. The class given is biochemical, pig. Here is the method:
Eight pig hearts/lungs were collected from the abattoir and kept on ice until the pulmonary arteries or aortas could be dissected and excess fat removed. 120 g of tissue was dissected. Unless otherwise stated all procedures were done at 4° C. Following dissection arteries were flash frozen in liquid nitrogen and stored at -70° C. until required. On the day of homogenisation, tissue was cooled with liquid nitrogen and broken into small pieces by striking with a hammer. The tissue was then homogenised in 15 mM BIS-TRIS, 1 μg/ml leupeptin and antipain, 2 μg/ml pepstatin A, 5 μM benzamidine, 2 mM EDTA (ethylenediaminetetraacetic acid) and 2 mM dithiothreitol, pH 6.5. Phenylmethanesulphonylfluoride (PMSF) was added to a final concentration of 50 μM just prior to homogenisation. The homogenate was then centrifuged for 20 minutes at 30,000 g. Supernatant was filtered firstly through glass wool and then a 0.45 μm filter. […] The column was washed with 150 mls of homogenisation buffer and PDE activities eluted with 150 ml of homogenisation buffer containing 100 mM sodium acetate. Six 25 ml fractions were collected, the flow rate throughout was 80 ml/hr. […]
and buffered with 50 mM TRIS/5 mM MgCl2 pH 7.5. […] Labelled 5'-AMP was eluted into a scintillation vial with 6 ml 0.25M acetic acid and counted in a scintillation counter using 10 ml Instagel (Packard). […]

A word on the IC50: it is the concentration that inhibits the measured activity by half. Read a low IC50 as greater potency in that assay.

`CCCOc1ccccc1-c1nc2nc[nH]c2c(=O)[nH]1` [Example 1, 2-(2-Propoxyphenyl)-6-purinone] gave an IC50 of 0.96 µM.

For the origin of these results see patent US4885301A, “Purinone derivatives which have bronchodilator, vasodilator and anti-allergic activities” (Smith Kline & French Laboratories Limited, priority 1987, dated 1989).
